Legend:
[1] = tested on: Msh2−/− ES cell line dMsh2-9; assay: Tolerance (survival) of ES cells after exposure to MNNG in the presence of O6-benzylguanine; conditions: 1 h exposure, 0 to 36.45 μM MNNG, O6-benzylguanine 20 μM, cells counted after 4 days
[2] = tested on: Msh2+/− ES cell line sMsh2-21; assay: as above; conditions: 1 h exposure, 0 to 36.45 μM MNNG, O6-benzylguanine 20 μM, cells counted after 4 days

CN(N=O)C(=N)N[N+](=O)[O-]
increase of LD50 for MNNG in the Msh2−/− cell line compared to the heterozygous and wild-type cell lines [1]: 20 fold | tolerance to MNNG of heterozygous cell line [2]: no increased tolerance

From patent US7199280B2, “Homologous recombination in mismatch repair inactivated eukaryotic cells” (dated 2007)
